From patent US10138261B2, “Ferrocenyl compounds” (The University of Birmingham, priority 2013, dated 2018)

Key:
[1] = test system: murine leukemia cells (L1210); assay: proliferation activity assay, L1210 cells; details: L1210, Hela and CEM cell lines
[2] = test system: Hela cells; assay: minimum cytotoxic concentration in antiviral assay host cells (Table 2)

Row | Substance | cytotoxicity in these cell lines (in words) [1] | Minimum cytotoxic concentration (required to cause a microscopically detectable alteration of normal cell morphology) [2] [μM]
1 | 1-(Thyminyl-)ethyl-ferrocene [Compound 4] | poor cytotoxicity | 
2 | (S,Rp)-1-[α-Methyl-(3-(hydroxy)propyl)]-2-[(thyminyl)ethyl]-ferrocene [Compound 1] |  | 244
